Biological target: Metabotropic glutamate receptor 2 (Homo sapiens, UniProt Q14416)
Experiment: Positive allosteric modulation of human mGlu2 receptor stably expressed in human Chem-1 cells assessed as potentiation of glutamate-induced intracellular calcium level t 1 uM preincubated for 30 mins followed by glutamate addition by fluorescence assay relative to control
Format: functional, cell-based

Protein sequences, listed by entry. Tags and fused reporters are not part of them. Lines headed by an entry give the natural chain unless they say otherwise; changes in a name come on top.
UniProt Q14416: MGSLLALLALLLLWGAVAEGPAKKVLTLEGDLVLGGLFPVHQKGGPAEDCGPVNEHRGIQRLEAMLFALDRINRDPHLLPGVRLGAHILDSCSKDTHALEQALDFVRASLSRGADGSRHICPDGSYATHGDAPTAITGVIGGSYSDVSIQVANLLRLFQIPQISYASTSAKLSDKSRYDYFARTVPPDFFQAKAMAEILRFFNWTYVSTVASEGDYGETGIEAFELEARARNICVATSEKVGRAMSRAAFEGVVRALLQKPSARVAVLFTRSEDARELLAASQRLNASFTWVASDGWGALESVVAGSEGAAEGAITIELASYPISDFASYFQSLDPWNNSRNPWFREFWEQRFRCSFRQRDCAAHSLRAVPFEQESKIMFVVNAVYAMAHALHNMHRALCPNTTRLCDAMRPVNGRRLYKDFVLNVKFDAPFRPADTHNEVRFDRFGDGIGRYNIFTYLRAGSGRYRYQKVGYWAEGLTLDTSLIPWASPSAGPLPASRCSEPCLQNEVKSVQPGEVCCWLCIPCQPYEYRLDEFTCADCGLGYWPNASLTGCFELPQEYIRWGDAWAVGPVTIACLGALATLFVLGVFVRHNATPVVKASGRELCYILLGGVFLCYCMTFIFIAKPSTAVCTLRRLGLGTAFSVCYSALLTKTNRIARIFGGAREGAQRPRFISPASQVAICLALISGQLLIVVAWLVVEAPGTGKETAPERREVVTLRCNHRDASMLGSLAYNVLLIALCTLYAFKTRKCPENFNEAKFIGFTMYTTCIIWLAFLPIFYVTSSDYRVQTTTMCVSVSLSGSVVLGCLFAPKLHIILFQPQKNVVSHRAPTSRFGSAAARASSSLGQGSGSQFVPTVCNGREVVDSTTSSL

Which Activity does the source give for `c1ccc2cc(CCN3CCn4c(nc5ccccc54)C3)ccc2c1` here?
Its Activity is 36%.

How did the Activity turn out when `c1ccc(CCN2CCn3c(nc4ccccc43)C2)nc1` was run?
Its Activity is -10%.

How did the Activity turn out when `c1csc(CCN2CCn3c(nc4ccccc43)C2)c1` was run?
Its Activity is 34%.

Which Activity does the source give for `O=C1Cn2c(nc3ccccc32)CN1CCCOc1ccc(Cl)c(Cl)c1` here?
The Activity was 30%.

With `c1ccc(CN2CCn3c(nc4ccccc43)C2)cc1` as the compound, how does the Activity read?
The Activity was 2.7%.
